Data from patent US9163012B2, “Carbamate and urea inhibitors of 11β-hydroxysteroid dehydrogenase 1” (Vitae Pharmaceuticals, Inc., priority 2009, dated 2015).
Where two headings read alike, the source gives them in different places.

Chains of the proteins cited; added tags and fusions are not shown. Lines headed by an entry give the natural chain unless they say otherwise; changes in a name come on top.
UniProt P28845: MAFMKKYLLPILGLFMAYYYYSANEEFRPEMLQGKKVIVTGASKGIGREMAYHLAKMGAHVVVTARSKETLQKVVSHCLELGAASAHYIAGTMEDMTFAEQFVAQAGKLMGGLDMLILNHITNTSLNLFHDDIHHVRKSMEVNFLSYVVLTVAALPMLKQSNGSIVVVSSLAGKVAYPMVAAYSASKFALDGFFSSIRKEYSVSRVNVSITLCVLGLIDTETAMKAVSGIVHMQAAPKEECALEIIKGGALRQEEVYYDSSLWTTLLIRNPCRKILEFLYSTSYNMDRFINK

Target: 11β-HSD1 (Homo sapiens (Human), UniProt P28845)
Experiment: Biological Test Example 1: inhibition of a microsomal preparation of 11β-HSD1 (SPA)
Type: biochemical
Description: All reactions were carried out at rt in 96 well clear flexible PET Microbeta plates (PerkinElmer). […] After a 10 minute pre-incubation, 50 μL of enzyme solution containing microsomes isolated from CHO cells overexpressing human 11-HSD1 (10-20 μg/ml of total protein) was added, and the plates were incubated for 90 minutes at rt. The reaction was stopped by adding 50 μl of the SPA beads suspension containing 10 μM […], 5 mg/ml protein A coated YSi SPA beads (GE Healthcare) and 3.3 μg/ml of anti-cortisol antibody (East Coast Biologics) in Superblock buffer (Bio-Rad). The plates were shaken for 120 minutes at rt, and the SPA signal corresponding to [^3H]cortisol was measured on a Microbeta plate reader.

[1] = microsomes from CHO cells overexpressing human 11β-HSD1, read-out: IC50 Range

Structure (SMILES)	IC50 [1] [nM]	IC50 (read-out: IC50) [nM]
O=C(OC1C2CC3CC1CC(O)(C3)C2)N1CCC(c2ncc(Cl)cn2)C1 (single isomer, unassigned) [EXAMPLE 24 Isomer 1, trans-1-hydroxy-4-adamantyl 3-(5-chloropyrimidin-2-yl)pyrrolidine-1-carboxylate]	< 100	2.29
O=C(OC1C2CC3CC1CC(O)(C3)C2)N1CCC(c2ncc(Cl)cn2)C1 (single isomer, unassigned) [EXAMPLE 24 Isomer 2, cis-1-hydroxy-4-adamantyl 3-(5-chloropyrimidin-2-yl)pyrrolidine-1-carboxylate]	> 100	≥ 100
Cc1ccc(C2CCN(C(=O)OC3C4CC5CC3CC(C(N)=O)(C5)C4)C2)nn1 (single isomer, unassigned) [EXAMPLE 37 Isomer 1, trans-1-carbamoyl-4-adamantyl 3-(6-methylpyridazin-3-yl)pyrrolidine-1-carboxylate]	< 100	16.3
Cc1ccc(C2CCN(C(=O)OC3C4CC5CC3CC(C(N)=O)(C5)C4)C2)nn1 (single isomer, unassigned) [EXAMPLE 37 Isomer 2]	> 100	> 100
NC(=O)C12CC3CC(C1)C(OC(=O)N1CCC(c4ncc(F)cn4)C1)C(C3)C2 (single isomer, unassigned) [EXAMPLE 41 Isomer 1, 1-carbamoyl-4-adamantyl 3-(5-fluoropyrimidin-2-yl)pyrrolidine-1-carboxylate]	< 100	2.99
NC(=O)C12CC3CC(C1)C(OC(=O)N1CCC(c4ncc(F)cn4)C1)C(C3)C2 (single isomer, unassigned) [EXAMPLE 41 Isomer 2, 1-carbamoyl-4-adamantyl 3-(5-fluoropyrimidin-2-yl)pyrrolidine-1-carboxylate]	< 100	48.8
Cc1csc(C2CCN(C(=O)OC3C4CC5CC3CC(C(N)=O)(C5)C4)C2)n1 (single isomer, unassigned) [EXAMPLE 42 Isomer 1, transl-carbamoyl-4-adamantyl 3-(4-methylthiazol-2-yl)pyrrolidine-1-carboxylate]	< 100	2.08
Cc1csc(C2CCN(C(=O)OC3C4CC5CC3CC(C(N)=O)(C5)C4)C2)n1 (single isomer, unassigned) [EXAMPLE 42 Isomer 2, cis-1-carbamoyl-4-adamantyl 3-(4-methylthiazol-2-yl)pyrrolidine-1-carboxylate]	> 100	> 100
COc1cnc(C2CCN(C(=O)OC3C4CC5CC3CC(C(N)=O)(C5)C4)C2)nc1 (single isomer, unassigned) [EXAMPLE 44 Isomer 1, 1-carbamoyl-4-adamantyl 3-(5-methoxypyrimidin-2-yl)pyrrolidine-1-carboxylate]	< 100	3.11
COc1cnc(C2CCN(C(=O)OC3C4CC5CC3CC(C(N)=O)(C5)C4)C2)nc1 (single isomer, unassigned) [EXAMPLE 44 Isomer 2, 1-carbamoyl-4-adamantyl 3-(5-methoxypyrimidin-2-yl)pyrrolidine-1-carboxylate]	> 100	> 100
NC(=O)C12CC3CC(C1)C(OC(=O)N1CCC(c4nccc(C(F)(F)F)n4)C1)C(C3)C2 (single isomer, unassigned) [EXAMPLE 48 Isomer 1, trans-1-carbamoyl-4-adamantyl 3-(4-(trifluoromethyl)pyrimidin-2-yl)pyrrolidine-1-carboxylate]	< 100	2.7
NC(=O)C12CC3CC(C1)C(OC(=O)N1CCC(c4nccc(C(F)(F)F)n4)C1)C(C3)C2 (single isomer, unassigned) [EXAMPLE 48 Isomer 2, cis-1-carbamoyl-4-adamantyl 3-(4-(trifluoromethyl)pyrimidin-2-yl)pyrrolidine-1-carboxylate]	> 100	> 100
